Experimental data reported in ChEMBL document CHEMBL1201862, “PubChem BioAssay data set” (2004).

Legend:
Experiment in all cases: NCI-60 cell line screen, 48 h
NCI-H23 = tested on: NCI-H23
A549 = tested on: A549
BT-549 = tested on: BT-549
COLO 205 = tested on: COLO 205
DMS-114 = tested on: DMS-114
DU-145 = tested on: DU-145
HOP-62 = tested on: HOP-62
HT-29 = tested on: HT-29
LOX IMVI = tested on: LOX IMVI
M14 = tested on: M14
M19-MEL = tested on: M19-MEL
MDA-MB-231 = tested on: MDA-MB-231
MDA-N = tested on: MDA-N
Malme-3M = tested on: Malme-3M
NCI-H460 = tested on: NCI-H460
OVCAR-3 = tested on: OVCAR-3
OVCAR-4 = tested on: OVCAR-4
OVCAR-8 = tested on: OVCAR-8
PC-3 = tested on: PC-3
RXF 393 = tested on: RXF 393
SF-539 = tested on: SF-539
SK-MEL-28 = tested on: SK-MEL-28
SK-MEL-2 = tested on: SK-MEL-2
SK-MEL-5 = tested on: SK-MEL-5
SK-OV-3 = tested on: SK-OV-3
SN12C = tested on: SN12C
SNB-19 = tested on: SNB-19
SNB-75 = tested on: SNB-75
SW-620 = tested on: SW-620
T47D = tested on: T47D

CC1C(=O)C(C)C(c2ccccc2)N(C)C1c1ccccc1 (stereo not given)
GI50 (NCI-H23): inactive: > 100000 nM

O=C1c2c(O)ccc(O)c2C(=O)c2c(NCCNCCO)ccc(NCCNCCO)c21 [MITOXANTRONE HYDROCHLORIDE]
GI50 (A549): active: 11.4 nM | GI50 (BT-549): active: 70.3 nM | GI50 (COLO 205): active: 108 nM | GI50 (DMS-114): active: 11.5 nM | GI50 (DU-145): active: 33.7 nM | GI50 (HOP-62): active: 12.8 nM | GI50 (HT-29): active: 249 nM | GI50 (LOX IMVI): active: 20.6 nM | GI50 (M14): active: 118 nM | GI50 (M19-MEL): active: 91.4 nM | GI50 (MDA-MB-231): active: 201 nM | GI50 (MDA-N): active: 234 nM | GI50 (Malme-3M): active: 120 nM | GI50 (NCI-H460): active: 5.64 nM | GI50 (OVCAR-3): active: 285 nM | GI50 (OVCAR-4): active: 332 nM | GI50 (OVCAR-8): active: 36.8 nM | GI50 (PC-3): active: 141 nM | GI50 (RXF 393): active: 65.2 nM | GI50 (SF-539): active: 17.8 nM | GI50 (SK-MEL-28): active: 468 nM | GI50 (SK-MEL-2): active: 389 nM | GI50 (SK-MEL-5): active: 55.2 nM | GI50 (SK-OV-3): active: 43 nM | GI50 (SN12C): active: 7.83 nM | GI50 (SNB-19): active: 15.4 nM | GI50 (SNB-75): active: 14.1 nM | GI50 (SW-620): active: 54.2 nM | GI50 (T47D): active: 63 nM

Structures can show the parent of a compound that is named as a salt.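 Results reflect a 48-hour exposure of cells in 96-well plates to compound at five concentrations. Here, GI50 denotes the concentration required for 50% inhibition of growth.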 Activity calls are given as the source filed them. Rule as the data show it: active = GI50 up to about 1.1 µM and inactive = higher.
